Earlier results as cited in publication PMC9094701, “Multiple-Allele MHC Class II Epitope Engineering by a Molecular Dynamics-Based Evolution Protocol” (Frontiers in Immunology, 2022).

Columns and labels:
[1] = target: DRB1*04:01 (Homo sapiens, UniProt P01903+P01911, A100K/A169T/F76Y/I96L/K127E/L162R/M171V/N62H/P40V/Q125Y/R42H/S133A/S149N/S66Y/V115G/V209L/W38E); conditions: DRB1*04:01, from IEDB; cited from earlier work
Text: (§1) A mySQL version of the database was downloaded and accessed using 15-mer peptides with reported IC 50 values as queries.

[2] = target: DRB1*15:01 (Homo sapiens, UniProt P01903+P01911); conditions: DRB1*15:01, from IEDB; cited from earlier work
Text: as §1

[3] = target: DRB1*01:01 (Homo sapiens, UniProt P01903+P01911, A100R/D57E/F55L/F60I/F76Y/I96L/L162R/M171V/P40L/Q125E/R42F/V115G/Y59C); conditions: DRB1*01:01, from IEDB; cited from earlier work

In the case of DYDVVYLKPLAGMYK, the IC50 [1] is listed as 1640 nM, the IC50 [2] is listed as 793 nM and the IC50 [3] is listed as 1 nM.
